Results on one substance are retold here after US8748113B2, “Methods for detecting and monitoring circulating cancer stem cells” (The Johns Hopkins University, priority 2007, dated 2014).

Format in all cases: cell-based, human
The subject of assay [1] is CD138+ plasma cells from the RPMI 8226 and NCI-H929 MM cell lines. In words: Clonogenic growth of CD138+ plasma cells isolated from MM cell lines. To be noted: FIGS. 10A and B, P<0.02 compared to the untreated control.
For assay [2], the system named is CD138neg MM progenitors derived from primary clinical specimens. The assay can be described thus: Clonogenic recovery of CD138neg MM progenitors from primary clinical samples. To be noted: 4 MM patients; FIG. 10C; P>0.2 compared to the untreated control.
A further assay relates to clonogenic MM cells. The assay can be described thus: In vitro clonogenic growth of MM precursors (summary statements). To be noted: summary statement. From the text:
Many agents are active in multiple myeloma (MM), but the majority of patients relapse. […] We further characterized clonogenic MM cells and stained cell lines using the Hoechst side population and Aldefluor assays. […] Furthermore, both the side population and Aldefluor assays were capable of identifying circulating clonotypic memory B cell populations within the peripheral blood of MM patients.
Rituximab and alemtuzumab, two humanized monoclonal antibodies that target the B-cell antigens CD20 and CD52, respectively, inhibit clonogenic MM cells. CD138^− precursors or CD138^+ plasma cells were isolated from the RPMI 8226 or NCI-H929 cell lines and treated with each of the two humanized monoclonal antibodies, rituximab or alemtuzumab, and in combination with human complement that strongly enhances their in vitro activity through complement dependent cytoxicity. Neither complement alone nor the monoclonal antibodies with or without complement affected the clonogenic growth of CD138^+ plasma cells that lack the target antigens (FIG. 8B; P>0.3 for all groups compared to the untreated control).
Although stem cells have been identified in an increasing number of human cancers, the clinical relevance and implications of these findings remain unclear. […]

For the substance 4 hydroperoxycyclophosphamide, the “clonogenic growth of CD138+ plasma cells” value in assay [1] is “inhibited”. Besides, the “effect on clonogenic MM precursors from patients” value in assay [2] is listed as “not significantly affected”. The “effect of anti-myeloma agents on CD138neg precursors / clonogenic MM progenitors” value in the assay on clonogenic MM cells was “little effect”.
